{"source": "patent US20170290821A1", "about": "(priority 2014, published 2017)", "test_system": "HEK293 cells or A549 cells", "data": [{"compound": "N#CC[C@H](C1CCCC1)n1cc(-c2ncnc3[nH]ccc23)cn1", "note": "[Ruxolitinib]", "values": [{"measurement": "cytotoxicity", "result": "did not show remarkable cytotoxicity"}, {"measurement": "toxicity to host cells", "result": "relatively low toxicity to host cells"}]}]}
